Reference: patent publication US20240115726A1, “HYDRAZONE-BASED SAPONIN DERIVATIVES” (priority 2020, published 2024)

Test system: SK-BR3 cells (HER2++/CD71+)
Experiment: HER2/CD71 targeted cell killing (MTS), Trastuzumab-saponin conjugate titration
Assay type: cell-based
Conditions: HER2++/CD71+ expressing cells; equivalent concentrations, without CD71mab-saporin

Trastuzumab-(EMCH-SO1861)^4: Trastuzumab conjugated to SO1861-EMCH via thiol-ene reaction at DAR 4
cell killing activity of the conjugate alone: could not induce any cell killing activity
